Laboratory results: US4364953A, “2-0- and 5-0-Substituted 1.4;3.6-dianhydrohexitol mononitrates and pharmaceutical composition” (Firma Willmar Schwabe, priority 1980, dated 1982)
Like-named read-outs stand apart in the source and are kept apart here.

Assays:
[1] = tested on: isolated rat aorta preparations; experiment: Spasmolytic effectiveness on isolated rat aorta preparations with noradrenaline- and potassium chloride-induced contractions
[2] = tested on: narcotised guinea pigs; experiment: Blood pressure experiments on the narcotised guinea pig (i.v.); details: for blood pressure previously: before administration (baseline); for blood pressure afterwards: after administration
[3] = tested on: mongrel cats; experiment: Heart-circulation effectiveness in narcotised mongrel cats, intraduodenal administration; details: 5 mg/kg intraduodenal, cat
[4] = 0 min (baseline), average ± standard error, 6 animals

With O=[N+]([O-])O[C@H]1CO[C@H]2[C@@H]1OC[C@H]2O[N+](=O)[O-] the IC50 ([1]; read-out: noradrenaline spasm, concentration for 50% inhibition of the spasm (ED50), noradrenaline-induced contraction) was 1300 nM, the IC50 ([1]; read-out: potassium chloride spasm, concentration for 50% inhibition of the spasm (ED50), potassium chloride-induced contraction) was 3100 nM and the blood pressure previously ([2]; 0.25 mg/kg i.v.) was 68.70 ± 2.30 mm.Hg. It also gave a blood pressure afterwards ([2]; 1.00 mg/kg i.v.) of 46.30 ± 0.90 mm.Hg, a blood pressure previously ([2]; 1.00 mg/kg i.v.) of 66.00 ± 3.50 mm.Hg and a blood pressure afterwards ([2]; 2.50 mg/kg i.v.) of 37.70 ± 0.90 mm.Hg. The blood pressure previously ([2]; 2.50 mg/kg i.v.) was 66.70 ± 1.70 mm.Hg, the blood pressure [3, 4] was 104.3 ± 7.7 mm.Hg and the “dp/dt (inotropism)” value [3, 4] was 8800 ± 831 mm.sec. The heart frequency [3, 4] was 174.3 ± 9.3 min⁻¹, the blood pressure ([3]; 10 min after admin.) was 90.4 ± 12.5 mm.Hg and the “dp/dt (inotropism)” value ([3]; 10 min after admin.) was 8000 ± 1097 mm.sec. The heart frequency ([3]; 10 min after admin.) was 179.3 ± 7.7 min⁻¹, the “blood pressure Δ” value ([3]; 10 min versus 0 min) was -13.9 mm.Hg and the “dp/dt Δ” value ([3]; 10 min versus 0 min) was -800 mm.sec. For the same compound, the blood pressure ([3]; 30 min after admin.) was 91.2 ± 10.0 mm.Hg, the “dp/dt (inotropism)” value ([3]; 30 min after admin.) was 7766 ± 807 mm.sec and the heart frequency ([3]; 30 min after admin.) was 177.7 ± 7.7 min⁻¹. For the same compound, the “blood pressure Δ” value ([3]; 30 min versus 0 min) was -13.1 mm.Hg, the “dp/dt Δ” value ([3]; 30 min versus 0 min) was -1133 mm.sec and the blood pressure ([3]; 60 min after admin.) was 94.2 ± 9.2 mm.Hg. The “dp/dt (inotropism)” value ([3]; 60 min after admin.) was 7633 ± 743 mm.sec, the heart frequency ([3]; 60 min after admin.) was 175.0 ± 8.6 min⁻¹ and the “blood pressure Δ” value ([3]; 60 min versus 0 min) was -10.1 mm.Hg. The “dp/dt Δ” value ([3]; 60 min versus 0 min) was -1167 mm.sec, the blood pressure ([3]; 120 min after admin.) was 95.0 ± 9.6 mm.Hg and the “dp/dt (inotropism)” value ([3]; 120 min after admin.) was 7050 ± 661 mm.sec. The heart frequency ([3]; 120 min after admin.) was 166.7 ± 9.4 min⁻¹, the “blood pressure Δ” value ([3]; 120 min versus 0 min) was -9.3 mm.Hg and the “dp/dt Δ” value ([3]; 120 min versus 0 min) was -1750 mm.sec.
